Earlier results on 1 substance are cited in US20060110594A1, “Polymer-coated substrates for binding biomolecules and methods of making and using thereof” (priority 2004, published 2006).

For this series the following is noted: isoelectric point, listed property; cited from earlier work.

On to “HSA: human serum albumin, a protein involved in the transport of drugs in the blood”, for which the pI was 5.5.
